Chains of the proteins cited; added tags and fusions are not shown. Lines headed by an entry give the natural chain unless they say otherwise; changes in a name come on top.
UniProt P29320: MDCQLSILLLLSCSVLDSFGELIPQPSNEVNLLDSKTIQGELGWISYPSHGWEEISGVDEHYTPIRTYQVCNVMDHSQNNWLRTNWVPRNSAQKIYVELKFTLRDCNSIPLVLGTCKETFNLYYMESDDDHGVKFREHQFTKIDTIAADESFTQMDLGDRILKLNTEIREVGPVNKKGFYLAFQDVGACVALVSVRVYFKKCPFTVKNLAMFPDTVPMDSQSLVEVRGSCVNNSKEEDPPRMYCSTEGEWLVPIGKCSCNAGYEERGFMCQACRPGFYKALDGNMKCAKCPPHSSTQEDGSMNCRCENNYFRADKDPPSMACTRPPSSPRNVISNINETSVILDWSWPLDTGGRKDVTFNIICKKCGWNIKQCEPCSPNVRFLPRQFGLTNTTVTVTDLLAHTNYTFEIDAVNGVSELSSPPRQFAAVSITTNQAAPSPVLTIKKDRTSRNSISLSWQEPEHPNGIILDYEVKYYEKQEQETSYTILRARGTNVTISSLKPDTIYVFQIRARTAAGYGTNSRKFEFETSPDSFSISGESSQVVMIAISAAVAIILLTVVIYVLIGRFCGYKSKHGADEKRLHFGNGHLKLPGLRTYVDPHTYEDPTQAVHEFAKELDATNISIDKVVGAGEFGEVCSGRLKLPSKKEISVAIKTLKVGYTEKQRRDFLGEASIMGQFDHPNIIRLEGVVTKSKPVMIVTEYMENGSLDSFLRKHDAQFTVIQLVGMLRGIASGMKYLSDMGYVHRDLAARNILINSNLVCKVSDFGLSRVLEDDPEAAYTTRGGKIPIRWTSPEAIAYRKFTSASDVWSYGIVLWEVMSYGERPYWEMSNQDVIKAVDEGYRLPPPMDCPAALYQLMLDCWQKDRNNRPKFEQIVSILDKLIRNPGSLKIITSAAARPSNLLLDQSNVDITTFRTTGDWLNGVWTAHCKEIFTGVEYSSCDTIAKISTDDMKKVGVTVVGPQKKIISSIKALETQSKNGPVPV
UniProt Q02156: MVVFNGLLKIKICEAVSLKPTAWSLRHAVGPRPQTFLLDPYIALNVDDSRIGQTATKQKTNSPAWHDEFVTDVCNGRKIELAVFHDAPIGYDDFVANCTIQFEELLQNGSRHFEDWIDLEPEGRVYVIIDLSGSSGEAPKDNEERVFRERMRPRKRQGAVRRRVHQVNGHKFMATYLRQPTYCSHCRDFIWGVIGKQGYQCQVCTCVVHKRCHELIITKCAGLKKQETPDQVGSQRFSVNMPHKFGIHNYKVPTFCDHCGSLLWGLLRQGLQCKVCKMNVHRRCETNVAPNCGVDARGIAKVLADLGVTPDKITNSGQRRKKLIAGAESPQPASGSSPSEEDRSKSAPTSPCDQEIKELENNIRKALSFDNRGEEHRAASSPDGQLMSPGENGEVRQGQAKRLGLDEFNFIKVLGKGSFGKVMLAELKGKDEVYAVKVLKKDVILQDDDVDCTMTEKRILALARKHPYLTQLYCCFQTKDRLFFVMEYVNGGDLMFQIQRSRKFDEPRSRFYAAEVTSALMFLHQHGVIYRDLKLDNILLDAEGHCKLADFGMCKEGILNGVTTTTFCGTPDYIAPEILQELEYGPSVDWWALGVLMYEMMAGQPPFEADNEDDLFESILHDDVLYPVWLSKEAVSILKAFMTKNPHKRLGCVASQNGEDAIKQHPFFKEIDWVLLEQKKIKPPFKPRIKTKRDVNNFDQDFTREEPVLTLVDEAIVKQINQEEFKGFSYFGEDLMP
UniProt Q9P0L2: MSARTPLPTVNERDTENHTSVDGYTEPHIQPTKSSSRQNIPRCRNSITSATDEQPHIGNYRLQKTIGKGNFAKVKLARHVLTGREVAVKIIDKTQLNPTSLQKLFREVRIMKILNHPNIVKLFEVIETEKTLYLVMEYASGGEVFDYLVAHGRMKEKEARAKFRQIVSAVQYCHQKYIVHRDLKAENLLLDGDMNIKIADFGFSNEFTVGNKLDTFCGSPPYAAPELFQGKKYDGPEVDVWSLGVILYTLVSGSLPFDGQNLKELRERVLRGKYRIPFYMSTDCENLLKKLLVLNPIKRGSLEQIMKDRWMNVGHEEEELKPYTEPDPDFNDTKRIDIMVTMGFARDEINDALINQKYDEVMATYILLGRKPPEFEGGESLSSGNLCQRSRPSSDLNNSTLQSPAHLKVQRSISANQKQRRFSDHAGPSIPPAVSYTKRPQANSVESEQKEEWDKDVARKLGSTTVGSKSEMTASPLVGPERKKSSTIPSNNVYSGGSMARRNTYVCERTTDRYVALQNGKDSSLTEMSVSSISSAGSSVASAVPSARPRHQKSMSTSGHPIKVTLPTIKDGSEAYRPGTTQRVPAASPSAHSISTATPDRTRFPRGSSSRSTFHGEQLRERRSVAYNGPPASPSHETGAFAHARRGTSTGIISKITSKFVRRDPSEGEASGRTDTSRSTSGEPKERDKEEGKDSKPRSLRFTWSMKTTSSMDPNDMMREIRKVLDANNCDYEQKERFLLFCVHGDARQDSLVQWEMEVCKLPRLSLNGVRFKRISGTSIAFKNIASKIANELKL
UniProt P35408: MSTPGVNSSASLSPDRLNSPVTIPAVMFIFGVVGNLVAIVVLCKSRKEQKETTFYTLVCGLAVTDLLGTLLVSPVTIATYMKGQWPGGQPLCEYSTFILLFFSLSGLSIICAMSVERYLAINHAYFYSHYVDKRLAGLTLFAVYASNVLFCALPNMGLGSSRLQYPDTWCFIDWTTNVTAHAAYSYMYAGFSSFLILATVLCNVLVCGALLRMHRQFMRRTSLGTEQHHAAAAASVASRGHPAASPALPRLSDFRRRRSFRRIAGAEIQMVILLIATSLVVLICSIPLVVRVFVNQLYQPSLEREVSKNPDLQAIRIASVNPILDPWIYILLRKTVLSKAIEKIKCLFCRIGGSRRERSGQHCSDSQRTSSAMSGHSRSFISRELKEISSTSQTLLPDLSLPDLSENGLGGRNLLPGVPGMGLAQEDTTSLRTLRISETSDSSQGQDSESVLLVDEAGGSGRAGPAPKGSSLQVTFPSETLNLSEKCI
UniProt Q96GD4, whole entry: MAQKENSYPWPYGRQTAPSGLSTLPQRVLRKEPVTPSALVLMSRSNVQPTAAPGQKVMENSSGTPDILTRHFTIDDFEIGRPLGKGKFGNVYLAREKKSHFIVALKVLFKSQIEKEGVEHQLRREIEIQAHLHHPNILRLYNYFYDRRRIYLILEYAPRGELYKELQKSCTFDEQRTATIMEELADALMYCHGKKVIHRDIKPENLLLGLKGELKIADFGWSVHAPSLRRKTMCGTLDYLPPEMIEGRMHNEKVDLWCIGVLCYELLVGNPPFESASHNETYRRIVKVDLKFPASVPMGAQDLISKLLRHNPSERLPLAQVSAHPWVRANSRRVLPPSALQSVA
UniProt Q96D53: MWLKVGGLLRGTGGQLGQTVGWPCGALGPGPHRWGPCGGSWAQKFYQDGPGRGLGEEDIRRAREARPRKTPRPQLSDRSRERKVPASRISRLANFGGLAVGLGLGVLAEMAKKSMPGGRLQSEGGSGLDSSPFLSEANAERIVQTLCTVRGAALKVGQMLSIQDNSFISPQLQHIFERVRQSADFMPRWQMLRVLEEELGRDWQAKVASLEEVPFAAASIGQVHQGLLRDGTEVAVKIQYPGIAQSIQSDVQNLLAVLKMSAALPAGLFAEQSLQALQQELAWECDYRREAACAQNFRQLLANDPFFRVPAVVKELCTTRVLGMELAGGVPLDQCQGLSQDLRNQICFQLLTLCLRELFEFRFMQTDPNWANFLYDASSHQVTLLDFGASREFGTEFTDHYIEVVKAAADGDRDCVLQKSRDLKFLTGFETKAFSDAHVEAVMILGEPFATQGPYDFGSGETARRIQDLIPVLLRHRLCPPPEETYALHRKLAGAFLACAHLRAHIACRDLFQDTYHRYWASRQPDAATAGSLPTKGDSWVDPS
UniProt Q15139: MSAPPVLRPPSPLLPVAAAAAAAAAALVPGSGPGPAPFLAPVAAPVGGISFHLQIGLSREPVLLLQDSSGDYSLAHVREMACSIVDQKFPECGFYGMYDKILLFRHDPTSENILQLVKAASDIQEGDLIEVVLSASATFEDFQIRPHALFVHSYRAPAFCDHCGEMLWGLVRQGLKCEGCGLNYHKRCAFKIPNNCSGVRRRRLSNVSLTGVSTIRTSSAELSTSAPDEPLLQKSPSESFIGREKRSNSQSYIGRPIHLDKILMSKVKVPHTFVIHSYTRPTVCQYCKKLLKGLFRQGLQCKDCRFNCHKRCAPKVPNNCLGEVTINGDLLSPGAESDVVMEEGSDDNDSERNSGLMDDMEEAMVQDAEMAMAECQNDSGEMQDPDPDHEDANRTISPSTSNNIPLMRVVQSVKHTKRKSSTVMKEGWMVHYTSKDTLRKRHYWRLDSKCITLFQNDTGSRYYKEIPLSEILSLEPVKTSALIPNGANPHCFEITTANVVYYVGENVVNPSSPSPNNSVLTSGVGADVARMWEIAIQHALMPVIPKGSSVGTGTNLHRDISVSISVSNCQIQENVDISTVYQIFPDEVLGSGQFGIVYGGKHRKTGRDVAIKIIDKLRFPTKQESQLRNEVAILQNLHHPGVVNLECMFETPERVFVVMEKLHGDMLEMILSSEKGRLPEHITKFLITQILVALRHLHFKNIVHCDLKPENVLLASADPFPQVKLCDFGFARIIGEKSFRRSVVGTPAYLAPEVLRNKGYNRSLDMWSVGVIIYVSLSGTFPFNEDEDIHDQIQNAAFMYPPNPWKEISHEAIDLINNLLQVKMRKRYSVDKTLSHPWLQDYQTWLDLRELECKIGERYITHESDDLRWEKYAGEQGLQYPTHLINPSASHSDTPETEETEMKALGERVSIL
UniProt Q59H18: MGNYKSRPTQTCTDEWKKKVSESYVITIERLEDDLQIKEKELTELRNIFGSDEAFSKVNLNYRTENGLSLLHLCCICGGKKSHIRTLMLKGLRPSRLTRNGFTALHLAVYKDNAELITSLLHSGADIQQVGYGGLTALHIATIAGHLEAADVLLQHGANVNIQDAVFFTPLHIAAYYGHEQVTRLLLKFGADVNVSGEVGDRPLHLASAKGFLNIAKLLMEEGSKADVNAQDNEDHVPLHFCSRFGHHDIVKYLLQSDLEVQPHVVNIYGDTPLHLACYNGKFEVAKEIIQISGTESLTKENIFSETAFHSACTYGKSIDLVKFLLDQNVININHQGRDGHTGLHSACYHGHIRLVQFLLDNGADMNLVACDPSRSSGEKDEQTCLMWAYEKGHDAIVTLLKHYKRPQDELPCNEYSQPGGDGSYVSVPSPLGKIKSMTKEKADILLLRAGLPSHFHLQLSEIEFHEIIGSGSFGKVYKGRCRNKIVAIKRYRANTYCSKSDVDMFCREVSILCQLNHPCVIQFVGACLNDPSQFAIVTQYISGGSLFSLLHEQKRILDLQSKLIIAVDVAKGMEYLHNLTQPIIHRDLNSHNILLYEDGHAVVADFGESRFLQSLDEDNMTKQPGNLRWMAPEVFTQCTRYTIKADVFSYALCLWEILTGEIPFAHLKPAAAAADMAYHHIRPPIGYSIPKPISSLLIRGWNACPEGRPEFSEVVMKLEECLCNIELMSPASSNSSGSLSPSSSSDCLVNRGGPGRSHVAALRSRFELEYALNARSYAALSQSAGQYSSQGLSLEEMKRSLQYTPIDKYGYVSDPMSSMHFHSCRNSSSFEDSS
UniProt Q16288, whole entry, looked up: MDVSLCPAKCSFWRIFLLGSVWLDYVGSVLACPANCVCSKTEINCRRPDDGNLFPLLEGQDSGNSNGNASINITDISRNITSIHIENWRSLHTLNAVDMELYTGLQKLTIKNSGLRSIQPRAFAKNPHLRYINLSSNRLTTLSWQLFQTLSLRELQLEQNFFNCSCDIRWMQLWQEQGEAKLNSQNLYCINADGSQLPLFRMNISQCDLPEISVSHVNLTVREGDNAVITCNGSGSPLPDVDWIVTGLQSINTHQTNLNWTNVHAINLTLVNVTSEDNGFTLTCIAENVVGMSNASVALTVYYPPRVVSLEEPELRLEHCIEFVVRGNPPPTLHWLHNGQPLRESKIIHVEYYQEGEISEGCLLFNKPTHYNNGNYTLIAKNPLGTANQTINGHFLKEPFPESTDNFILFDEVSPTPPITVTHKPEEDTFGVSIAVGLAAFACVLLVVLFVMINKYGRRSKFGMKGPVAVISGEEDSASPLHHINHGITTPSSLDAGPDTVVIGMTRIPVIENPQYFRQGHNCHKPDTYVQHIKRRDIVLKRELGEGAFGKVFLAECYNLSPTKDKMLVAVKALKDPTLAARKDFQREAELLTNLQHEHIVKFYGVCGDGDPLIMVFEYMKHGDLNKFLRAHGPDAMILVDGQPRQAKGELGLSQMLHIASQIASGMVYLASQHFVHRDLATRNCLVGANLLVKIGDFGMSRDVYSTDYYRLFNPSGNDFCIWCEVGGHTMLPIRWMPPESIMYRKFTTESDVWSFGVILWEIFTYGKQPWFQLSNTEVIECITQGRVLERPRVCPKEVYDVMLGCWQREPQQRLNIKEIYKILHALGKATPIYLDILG

According to ChEMBL document CHEMBL4507276, “Data for DCP probe BI 665915” (2021):

Key:
[1] = target: Protein kinase C theta type (Homo sapiens) (UniProt Q04759); settings: Compound concentration 1000.0 nM
[2] = target: Ephrin type-A receptor 3 (Homo sapiens) (UniProt P29320); assay: EPHA3 Invitrogen selectivity data (BI); settings: Compound concentration 3.0 uM
[3] = target: Mitogen-activated protein kinase kinase kinase 14 (Homo sapiens) (UniProt Q99558); settings: Compound concentration 1000.0 nM
[4] = target: Death-associated protein kinase 3 (Homo sapiens) (UniProt O43293); settings: Compound concentration 1000.0 nM
[5] = target: Tyrosine-protein kinase ABL1 (Homo sapiens) (UniProt P00519); settings: Compound concentration 1000.0 nM
[6] = target: 3-phosphoinositide-dependent protein kinase 1 (Homo sapiens) (UniProt O15530); assay: PDK1 Invitrogen selectivity data (BI); settings: Compound concentration 3.0 uM
[7] = target: Phosphatidylinositol 4-kinase beta (Homo sapiens) (UniProt Q9UBF8); settings: Compound concentration 1000.0 nM
[8] = target: Macrophage colony-stimulating factor 1 receptor (Homo sapiens) (UniProt P07333); settings: Compound concentration 1000.0 nM
[9] = target: Dual specificity mitogen-activated protein kinase kinase 1 (Homo sapiens) (UniProt Q02750); assay: MAP2K1_S_D Invitrogen selectivity data (BI); settings: Compound concentration 3.0 uM
[10] = tested on: Imidazoline I2 binding site (Rattus norvegicus); assay: I2/CENTR/R Eurofins-Panlabs selectivity data (BI); settings: Compound concentration 10.0 uM
[11] = target: Protein kinase C epsilon type (Homo sapiens) (UniProt Q02156); settings: Compound concentration 1000.0 nM
[12] = target: Serine/threonine-protein kinase MARK1 (Homo sapiens) (UniProt Q9P0L2); settings: Compound concentration 1000.0 nM
[13] = target: Ribosomal protein S6 kinase alpha-5 (Homo sapiens) (UniProt O75582); settings: Compound concentration 1000.0 nM
[14] = target: Prostaglandin E2 receptor EP4 subtype (Homo sapiens) (UniProt P35408); assay: PEP4_HU Eurofins-Panlabs selectivity data (BI); settings: Compound concentration 10.0 uM
[15] = target: Cyclin-dependent kinase-like 1 (Homo sapiens) (UniProt Q00532); settings: Compound concentration 1000.0 nM
[16] = target: Aurora kinase B (Homo sapiens) (UniProt Q96GD4); assay: AURKB Invitrogen selectivity data (BI); settings: Compound concentration 3.0 uM
[17] = target: Atypical kinase COQ8B, mitochondrial (Homo sapiens) (UniProt Q96D53); settings: Compound concentration 1000.0 nM
[18] = target: Vascular endothelial growth factor receptor 1 (Homo sapiens) (UniProt P17948); assay: FLT1 Invitrogen selectivity data (BI); settings: Compound concentration 3.0 uM
[19] = target: Ephrin type-A receptor 5 (Homo sapiens) (UniProt P54756); assay: EPHA5 Invitrogen selectivity data (BI); settings: Compound concentration 3.0 uM
[20] = target: Mitogen-activated protein kinase kinase kinase 13 (Homo sapiens) (UniProt O43283); settings: Compound concentration 1000.0 nM
[21] = target: Proto-oncogene tyrosine-protein kinase receptor Ret (Homo sapiens) (UniProt P07949); assay: RET Invitrogen selectivity data (BI); settings: Compound concentration 3.0 uM
[22] = target: Serine/threonine-protein kinase D1 (Homo sapiens) (UniProt Q15139); assay: PRKD1 Invitrogen selectivity data (BI); settings: Compound concentration 3.0 uM
[23] = target: MAP kinase-activated protein kinase 2 (Homo sapiens) (UniProt P49137); settings: Compound concentration 1000.0 nM
[24] = target: Tyrosine-protein kinase JAK2 (Homo sapiens) (UniProt O60674); assay: JAK2 JH1 JH2 Invitrogen selectivity data (BI); settings: Compound concentration 3.0 uM
[25] = target: Serine/threonine-protein kinase TBK1 (Homo sapiens) (UniProt Q9UHD2); assay: TBK1 Invitrogen selectivity data (BI); settings: Compound concentration 3.0 uM
[26] = target: Serine/threonine-protein kinase TNNI3K (Homo sapiens) (UniProt Q59H18); settings: Compound concentration 1000.0 nM
[27] = target: NT-3 growth factor receptor (Homo sapiens) (UniProt Q16288); settings: Compound concentration 1000.0 nM
[28] = target: Serine/threonine-protein kinase VRK2 (Homo sapiens) (UniProt Q86Y07); settings: Compound concentration 1000.0 nM
[29] = target: Tyrosine-protein kinase ZAP-70 (Homo sapiens) (UniProt P43403); assay: ZAP70_CE Cerep selectivity data (BI); settings: Compound concentration 20.0 uM

## CN(C)C(=O)Cn1cc(-c2nc([C@@](C)(c3ccc(-c4cnc(N)nc4)cc3)C3CC3)no2)cn1 [BI 665915]
[1]
  residual activity: 92%
[2]
  residual activity: 92%
[3]
  residual activity: 92%
[4]
  residual activity: 92%
[5]
  residual activity: 92%
[6]
  residual activity: 92%
[7]
  residual activity: 92%
[8]
  residual activity: 92%
[9]
  residual activity: 92%
[10]
  residual activity: 92%
[11]
  residual activity: 44%
[12]
  residual activity: 92%
[13]
  residual activity: 92%
[14]
  residual activity: 92%
[15]
  residual activity: 92%
[16]
  residual activity: 92%
[17]
  residual activity: 92%
[18]
  residual activity: 92%
[19]
  residual activity: 92%
[20]
  residual activity: 92%
[21]
  residual activity: 56%
[22]
  residual activity: 92%
[23]
  residual activity: 92%
[24]
  residual activity: 92%
[25]
  residual activity: 92%
[26]
  residual activity: 92%
[27]
  residual activity: 92%
[28]
  residual activity: 92%
[29]
  residual activity: 92%
